# Measurements reported in patent US20040259244A1, “Methods, compositions, and growth and differentiation factors for insulin-producing cells” (priority 2002, published 2004).
# System: conversion of stem cells into insulin producing cells
# Assay type: cell-based
# Conditions: statistical analysis of insulin content of supernatants, 3 donors, combinatorial array in alginate
molecule,measurement,value
"BMP-2: Bone Morphogenic Protein (protein, UniProt P12643 283-396, looked up) Bone morphogenetic protein 2: QAKHKQRKRLKSSCKRHPLYVDFSDVGWNDWIVAPPGYHAFYCHGECPFPLADHLNSTNHAIVQTLVNSVNSKIPKACCVPTELSAISMLYLDENEKVVLKNYQDMVVEGCGCR",effect on the conversion of stem cells into insulin producing cells,potential positive effect
